One experiment addresses HLA-A*2402 (Homo sapiens, UniProt P04439, D101N/D140Y/D185E/E176V/E190D/F33S/G103R/G107R/I119L/I121M/I306V/K335N/L105A/L180Q/L300P/N151K/N90K/Q86E/Q94H/R106L/R138H/R89G/T104I/T345S/V100E/W191G/Y123F). Put plainly: Purified HLA class I peptide binding assay, A*2402.
Experiment [1] concerns A3-supertype alleles (A*0301, A*1101, A*3101, A*3301, and A*6801). Put plainly: A3-supertype cross-reactive binding (five alleles). Further details: species or system human.
The next experiment has as its target HLA-A*0301 (Homo sapiens, UniProt P04439). In words: Purified HLA class I peptide binding assay, A*0301. The settings on record: binding affinity, HLA-A3 supermotif-bearing peptides.
The target of another experiment is HLA-A*3301 (Homo sapiens, UniProt P04439, A270S/D185E/E176V/E277Q/E87N/F33T/G231S/H175R/I121M/I218V/I322F/K168Q/K210R/L300P/L318F/M331R/P217A/Q86R/Q94H/R138Q/T323A/T345S/T97I/V358M/Y195H). In words: Purified HLA class I peptide binding assay, A*3301. Conditions: binding affinity, HLA-A3 supermotif-bearing peptides.
Another experiment has as its target HLA-A*3101 (Homo sapiens, UniProt P04439, A270S/D185E/E176V/E277Q/F33T/G231S/G80R/H175R/I121M/I218V/I322F/K168Q/L300P/L318F/M331R/P217A/Q94H/R138Q/T323A/T345S/T97I/V358M). In words: Purified HLA class I peptide binding assay, A*3101. The settings on record: binding affinity, HLA-A3 supermotif-bearing peptides.
The target in another experiment is HLA-A*1101 (Homo sapiens, UniProt P04439, A114D/D185E/E176A/F33Y/L180Q/S129P/T187R). In words: Purified HLA class I peptide binding assay, A*1101.
[2] abbreviates: HLA-A24 motif-bearing peptides, Table XXVIa.
The mark [3] stands for this setting: read-out: A*[…], A24 motif-bearing peptides, Table XXVIB.

Like-named read-outs stand apart in the source and are kept apart here.

In turn, `CC[C@H](C)[C@H](N)C(=O)N[C@@H](CCSC)C(=O)N1CCC[C@H]1C(=O)N[C@@H](CCCCN)C(=O)N[C@@H](C)C(=O)NCC(=O)N[C@@H](CC(C)C)C(=O)N[C@@H](CC(C)C)C(=O)N[C@H](C(=O)N[C@H](C(=O)O)[C@@H](C)CC)[C@@H](C)CC` returned an IC50 at HLA-A*2402 (setting [2]) of 0.24 µM. Take `CC(C)C[C@H](NC(=O)[C@@H](NC(=O)[C@H](CCCCN)NC(=O)[C@@H](NC(=O)[C@H](Cc1ccc(O)cc1)NC(=O)[C@@H](N)CO)C(C)C)C(C)C)C(=O)N[C@@H](Cc1c[nH]cn1)C(=O)N[C@@H](Cc1c[nH]cn1)C(=O)N[C@H](C(=O)N[C@@H](Cc1ccccc1)C(=O)O)[C@@H](C)O` [Peptide 57.0088]: the IC50 on HLA-A*2402 (setting [3]) is 0.0343 µM. `CSCC[C@H](NC(=O)[C@@H](N)CO)C(=O)N[C@@H](CC(C)C)C(=O)N[C@@H](CCC(=O)O)C(=O)N[C@H](C(=O)N[C@@H](Cc1ccccc1)C(=O)N[C@@H](CCC(=O)O)C(=O)NCC(=O)N[C@@H](CCCNC(=N)N)C(=O)O)C(C)C`: the “No. of A3 Alleles Crossbound” value in experiment [1] amounted to 3. The IC50 at HLA-A*0301 was 5.5 µM. At HLA-A*2402 (setting [2]), `CC(C)C[C@H](NC(=O)[C@@H]1CCCN1C(=O)[C@@H]1CCCN1C(=O)[C@H](Cc1ccc(O)cc1)NC(=O)[C@@H](N)CO)C(=O)N[C@@H](Cc1c[nH]cn1)C(=O)N[C@@H](CCC(=O)O)C(=O)N[C@@H](Cc1c[nH]c2ccccc12)C(=O)O` yielded an IC50 of 0.286 µM. `CC[C@H](C)[C@H](NC(=O)[C@@H](NC(=O)[C@@H]1CCCN1C(=O)[C@H](Cc1ccccc1)NC(=O)[C@H](Cc1ccccc1)NC(=O)[C@H](Cc1ccc(O)cc1)NC(=O)[C@@H](N)CCC(N)=O)C(C)C)C(=O)N[C@@H](Cc1ccccc1)C(=O)O` had an IC50 at HLA-A*2402 (setting [2]) of 0.1 µM.

`CC[C@H](C)[C@H](NC(=O)[C@@H](NC(=O)[C@@H](NC(=O)[C@H](CO)NC(=O)[C@H](Cc1ccc(O)cc1)NC(=O)[C@@H](N)CO)[C@@H](C)O)[C@@H](C)O)C(=O)N[C@@H](CC(N)=O)C(=O)N[C@@H](Cc1ccc(O)cc1)C(=O)N[C@H](C(=O)N[C@@H](Cc1ccccc1)C(=O)O)[C@@H](C)O` [Peptide 57.0084]: the IC50 at HLA-A*2402 (setting [3]) is 0.0148 µM. On to `CC(C)C[C@H](NC(=O)[C@@H](NC(=O)[C@H](CCCCN)NC(=O)[C@@H](NC(=O)[C@H](Cc1ccc(O)cc1)NC(=O)[C@@H](N)CO)C(C)C)C(C)C)C(=O)N[C@@H](Cc1c[nH]cn1)C(=O)N[C@@H](Cc1c[nH]cn1)C(=O)N[C@H](C(=O)N[C@@H](Cc1ccccc1)C(=O)O)[C@@H](C)O`, for which the IC50 at HLA-A*2402 (setting [2]) was found to be 0.034 µM. Consider `CC(C)[C@H](NC(=O)[C@@H](N)CO)C(=O)N[C@@H](Cc1ccccc1)C(=O)N[C@@H](C)C(=O)N[C@@H](Cc1c[nH]cn1)C(=O)N1CCC[C@H]1C(=O)N[C@@H](CCCNC(=N)N)C(=O)N[C@@H](CCCCN)C(=O)O`, for which the “No. of A3 Alleles Crossbound” value in experiment [1] amounted to 3. This molecule showed an IC50 at HLA-A*3301 above 10 µM. In the case of `CC[C@H](C)[C@H](NC(=O)[C@@H](NC(=O)[C@@H](NC(=O)[C@@H](N)CO)[C@@H](C)O)[C@@H](C)O)C(=O)N[C@@H](CC(N)=O)C(=O)N[C@@H](Cc1ccc(O)cc1)C(=O)N[C@H](C(=O)N[C@@H](CC(C)C)C(=O)N[C@@H](Cc1c[nH]c2ccccc12)C(=O)N[C@@H](CCCCN)C(=O)O)[C@@H](C)O`, the IC50 at HLA-A*3101 and at HLA-A*3301 was above 10 µM each time. For the same molecule, in experiment [1], the “No. of A3 Alleles Crossbound” value is 3. `CC(C)C[C@H](NC(=O)[C@H](CCC(=O)O)NC(=O)[C@@H](NC(=O)[C@H](Cc1ccc(O)cc1)NC(=O)[C@@H](N)CCCCN)C(C)C)C(=O)N[C@H](C(=O)N[C@@H](Cc1c[nH]cn1)C(=O)N[C@@H](Cc1ccccc1)C(=O)N[C@@H](Cc1ccccc1)C(=O)O)C(C)C` [Peptide 57.0061]: the IC50 at HLA-A*2402 (A24 motif-bearing peptides, Table XXVIB) was 0.0071 µM. In the case of `CC[C@H](C)[C@H](N)C(=O)N[C@@H](Cc1ccc(O)cc1)C(=O)N[C@@H](CO)C(=O)N[C@@H](CCCCN)C(=O)N[C@@H](C)C(=O)N[C@@H](CO)C(=O)N[C@@H](CCC(=O)O)C(=O)N[C@@H](Cc1ccc(O)cc1)C(=O)N[C@@H](Cc1ccccc1)C(=O)O` [Peptide 57.0062], on HLA-A*2402 (setting [3]), the IC50 is 0.0146 µM. As for `CC[C@H](C)[C@H](NC(=O)[C@H](CC(C)C)NC(=O)[C@H](C)N)C(=O)N[C@@H](CCC(=O)O)C(=O)N[C@H](C(=O)N[C@@H](CO)C(=O)N[C@@H](Cc1ccc(O)cc1)C(=O)N[C@H](C(=O)N[C@@H](CCCCN)C(=O)O)C(C)C)[C@@H](C)O`, the “No. of A3 Alleles Crossbound” value in experiment [1] was 3. For `CC(C)C[C@H](NC(=O)[C@@H](NC(=O)[C@@H](N)CO)C(C)C)C(=O)N[C@@H](CCC(=O)O)C(=O)N[C@H](C(=O)N[C@@H](Cc1ccccc1)C(=O)N[C@@H](CCC(=O)O)C(=O)NCC(=O)N[C@@H](CCCNC(=N)N)C(=O)O)C(C)C`, the “No. of A3 Alleles Crossbound” value in experiment [1] is listed as 4. This molecule registered an IC50 on HLA-A*0301 above 10 µM. With `CC[C@H](C)[C@H](NC(=O)[C@@H](NC(=O)[C@@H]1CCCN1C(=O)[C@H](Cc1ccccc1)NC(=O)[C@@H](NC(=O)[C@@H](N)Cc1ccc(O)cc1)C(C)C)C(C)C)C(=O)N[C@@H](Cc1ccccc1)C(=O)N[C@@H](CO)C(=O)N[C@@H](CCCNC(=N)N)C(=O)O`, the IC50 on HLA-A*1101 came out at 0.0026 µM; on HLA-A*3101, 0.006 µM; at HLA-A*3301, 0.013 µM. As for `CC(C)C[C@H](NC(=O)[C@H](CC(=O)O)NC(=O)[C@@H]1CCCN1C(=O)[C@H](Cc1ccc(O)cc1)NC(=O)[C@@H](N)[C@@H](C)O)C(=O)N[C@@H](CCC(=O)O)C(=O)N[C@@H](CO)C(=O)N[C@@H](CCC(=O)O)C(=O)N[C@@H](Cc1ccccc1)C(=O)O` [Peptide 57.0065], the IC50 on HLA-A*2402 (setting [3]) is 0.218 µM. Consider `CC[C@H](C)[C@H](NC(=O)[C@@H](NC(=O)[C@@H](NC(=O)[C@H](CO)NC(=O)[C@@H](N)Cc1ccccc1)[C@@H](C)O)[C@@H](C)O)C(=O)N[C@@H](CC(N)=O)C(=O)N[C@@H](Cc1ccc(O)cc1)C(=O)N[C@H](C(=O)N[C@@H](CC(C)C)C(=O)N[C@@H](Cc1c[nH]c2ccccc12)C(=O)N[C@@H](CCCNC(=N)N)C(=O)O)[C@@H](C)O`, for which, on HLA-A*3101, the IC50 was 0.257 µM. Besides, in experiment [1], the “No. of A3 Alleles Crossbound” value is on record as 3. In the case of `CC(C)C[C@H](NC(=O)[C@H](CC(=O)O)NC(=O)[C@@H]1CCCN1C(=O)[C@H](Cc1ccc(O)cc1)NC(=O)[C@@H](N)[C@@H](C)O)C(=O)N[C@@H](CCC(=O)O)C(=O)N[C@@H](CO)C(=O)N[C@@H](CCC(=O)O)C(=O)N[C@@H](Cc1ccccc1)C(=O)O`, the IC50 at HLA-A*2402 (setting [2]) turned out to be 0.218 µM.

In the case of `CC(C)C[C@H](NC(=O)[C@H](CC(C)C)NC(=O)[C@H](CC(C)C)NC(=O)[C@H](Cc1ccccc1)NC(=O)[C@H](Cc1c[nH]cn1)NC(=O)[C@@H](NC(=O)[C@@H](N)CC(C)C)C(C)C)C(=O)N[C@@H](CCCCN)C(=O)N[C@@H](CCCCN)C(=O)O`, the IC50 on HLA-A*3101 and on HLA-A*3301 was above 10 µM each time. Further, the “No. of A3 Alleles Crossbound” value in experiment [1] worked out at 3. As to `CC(C)C[C@H](NC(=O)[C@@H]1CCCN1C(=O)[C@@H]1CCCN1C(=O)[C@H](Cc1ccc(O)cc1)NC(=O)[C@@H](N)CO)C(=O)N[C@@H](Cc1c[nH]cn1)C(=O)N[C@@H](CCC(=O)O)C(=O)N[C@@H](Cc1c[nH]c2ccccc12)C(=O)O` [Peptide 52.0078], the IC50 on HLA-A*2402 (setting [3]) amounted to 0.286 µM.

For `CC[C@H](C)[C@H](NC(=O)[C@@H](NC(=O)[C@H](C)N)C(C)C)C(=O)N[C@@H](CCC(=O)O)C(=O)N[C@H](C(=O)N[C@@H](CO)C(=O)N[C@@H](Cc1ccc(O)cc1)C(=O)N[C@H](C(=O)N[C@@H](CCCNC(=N)N)C(=O)O)C(C)C)[C@@H](C)O`, the “No. of A3 Alleles Crossbound” value in experiment [1] was 3. Besides, the IC50 at HLA-A*0301 was above 10 µM.

The values above are taken from patent US20040053822A1, “Inducing cellular immune responses to mage2/3 using peptide and nucleic acid compositions” (priority 2002, published 2004).
